Assays:
[1] = target: T1, rat Oat2 (Rattus norvegicus, UniProt Q5RLM2); test: Cellular transport assay, HEK-293 cells expressing rat Oat2
T1 sequence (Q5RLM2 1-535): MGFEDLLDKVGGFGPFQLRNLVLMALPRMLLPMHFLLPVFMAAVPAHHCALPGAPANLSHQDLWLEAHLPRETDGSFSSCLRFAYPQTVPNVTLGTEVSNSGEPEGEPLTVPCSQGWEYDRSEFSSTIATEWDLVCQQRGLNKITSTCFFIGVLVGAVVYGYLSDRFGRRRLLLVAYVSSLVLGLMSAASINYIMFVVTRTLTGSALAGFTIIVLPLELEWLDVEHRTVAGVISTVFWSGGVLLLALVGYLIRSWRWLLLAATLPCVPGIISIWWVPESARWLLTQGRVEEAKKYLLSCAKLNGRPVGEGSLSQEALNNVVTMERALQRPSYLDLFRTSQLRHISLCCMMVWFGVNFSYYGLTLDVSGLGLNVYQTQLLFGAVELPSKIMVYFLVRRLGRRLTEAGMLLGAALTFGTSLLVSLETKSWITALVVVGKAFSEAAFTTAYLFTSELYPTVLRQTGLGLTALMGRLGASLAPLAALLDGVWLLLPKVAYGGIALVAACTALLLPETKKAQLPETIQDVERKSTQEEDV
Description: (§1) Briefly, HEK-293 cells were grown, at 37°C and 5% CO2, in Dulbecco’s modified Eagle’s medium, which was fortified with 10% fetal bovine serum, 1% minimal essential medium nonessential amino acids, and 1% antibiotic-antimycotic solution. A day before transfection, cells were seeded onto 24-well poly-D-lysine-coated plates at a density of 2 × 10^5 cells per well. After incubation at 37°C and 5% CO2 for 24 h, the expression plasmid and the empty vector were introduced separately into the HEK293 cells with Lipofectamine 2000 transfection reagent (Invitrogen, Carlsbad, CA, United States), according to the manufacturer’s protocol to yield transporter-expressing cells and mock cells, respectively.
(§2) Transport studies were performed 48 h after the transfection. […] Differential uptake between the transfected cells and mock cells was defined as net transport ratio (TransportTC/TransportMC ratio), where TransportTC and TransportMC are the transport rates of a test Danshen compound into transfected and mock cells, respectively. […] The determination was performed under linear uptake conditions by incubation for 5 min. Table 1 summarizes the final concentrations of the test Danshen compounds for different transporters. All the incubation samples were analyzed by liquid chromatography/mass spectrometry. […]

[2] = target: T2, human OAT1 (Homo sapiens, UniProt Q4U2R8); test: Cellular transport assay, HEK-293 cells expressing human OAT1
T2 sequence (Q4U2R8 1-563): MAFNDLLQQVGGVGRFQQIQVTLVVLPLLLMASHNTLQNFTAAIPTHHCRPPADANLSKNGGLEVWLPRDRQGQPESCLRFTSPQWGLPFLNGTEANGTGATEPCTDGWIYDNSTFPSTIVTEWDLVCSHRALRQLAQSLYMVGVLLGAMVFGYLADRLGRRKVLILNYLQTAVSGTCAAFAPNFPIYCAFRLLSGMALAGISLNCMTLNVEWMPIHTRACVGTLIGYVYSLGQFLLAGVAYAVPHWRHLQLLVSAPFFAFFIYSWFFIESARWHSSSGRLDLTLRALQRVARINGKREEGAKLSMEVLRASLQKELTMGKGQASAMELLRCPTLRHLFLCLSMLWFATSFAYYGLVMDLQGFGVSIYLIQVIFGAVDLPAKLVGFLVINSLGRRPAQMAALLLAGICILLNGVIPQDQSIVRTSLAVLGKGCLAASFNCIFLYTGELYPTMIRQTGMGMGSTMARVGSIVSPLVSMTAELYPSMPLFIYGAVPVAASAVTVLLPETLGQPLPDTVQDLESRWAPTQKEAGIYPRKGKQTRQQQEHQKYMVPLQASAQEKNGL
Description: as §1, §2

## O=C(O)C(O)Cc1ccc(O)c(O)c1 (stereo not drawn) [Tanshinol, tanshinol]
[1]
  substrate of rat Oat2: substrates
[1]; rat, other cell line
  microsomal CLint: 1.47 µL/min/mg
[2]
  substrate of human OAT1: substrates

From paper PMC9127186, “Molecular Basis Underlying Hepatobiliary and Renal Excretion of Phenolic Acids of Salvia miltiorrhiza Roots (Danshen)” (Frontiers in Pharmacology, 2022)
